Antibody variant affinities, Ab-14 light chain, assay B

The measurements come from Li et al. 2023 (doi:10.1038/s41467-023-39022-2) through the FLAb antibody collection.

Binding partner: SARS-CoV-2 spike HR2 peptide, sequence PDVDLGDISGINAS.

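Phage display of a naive human antibody library on the peptide gave the parent. These sequences belong to a second round, designed from the earlier measurements on random variants of the parent. Their group label is 14L_En_Gibbs (En: ensemble of fine-tuned language models; Gibbs: Gibbs sampling). The assay is AlphaSeq: two haploid yeast populations carry antibody and antigen on their surface. Mating (16 h, 30 °C) was followed by selection of diploids and sequencing of their barcodes. The ratio of observed to expected reads was calibrated, replicate by replicate, on BCL2-family standards whose Kd was known from biolayer interferometry. Mating was done six times.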

Parent scFv Ab-14: VH joined to VL by three GGGGS repeats. Changes lie in the light chain CDRs alone.
VH: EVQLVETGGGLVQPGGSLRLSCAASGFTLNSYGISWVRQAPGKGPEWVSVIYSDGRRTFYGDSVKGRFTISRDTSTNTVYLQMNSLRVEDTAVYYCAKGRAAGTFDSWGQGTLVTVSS
VL: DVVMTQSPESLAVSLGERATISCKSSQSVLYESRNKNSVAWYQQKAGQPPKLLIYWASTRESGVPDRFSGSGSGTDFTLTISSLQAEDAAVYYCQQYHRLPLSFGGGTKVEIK

Each variant is given by its three light chain CDRs, as the data file delimits them; those of the parent are KSSQSVLYESRNKNSVA, WASTRES, QQYHRLPLS. Numbers give log10(Kd / nM), so 0 is 1 nM and 3 is 1 µM. Smaller is tighter. Averages over replicates are reported, and they cover detected replicates only. Where no diploid with the target was found in that replicate, the entry reads "nd": below detection, most likely a poor binder, though not proof of it. The range of this assay differs from that of the first round, and the authors advise against merging the two. The authors' rule: three or more of the six replicates give a measured affinity, fewer mean a poor binder. Of ten entries with the parent sequence, four were seen in most replicates (averages 0.34 to 2.37), three in one and three in none, so single entries are noisy. As a blank, each scFv also met three strains without target: over all light chain designs, 4% of these pairings were detected, typically at 2.64 and seldom below 1.59. For each scFv, signals with the empty controls are counted beside the result, with their mean in brackets.

CDR-L1 | CDR-L2 | CDR-L3 | log10 Kd (nM) by replicate | log10 Kd (nM), mean | empty controls
MFDQMDKQQGMNTNNVA | GVEISRI | QQYSRLPFS | nd 1.72 1.71 1.49 2.81 2.01 | 1.95 | 0 of 18
TLKMDKLPGQVNAYNVA | EAELVEN | QQYFHLPLY | nd 2.47 nd nd 3.23 nd | 2.85 | 0 of 18
NITQIFDNMGDQRSNVA | NGETLFH | QQYDRLPFL | 0.97 1.11 0.87 0.87 0.93 1.04 | 0.96 | 2 of 18 (3.08)
SIDPYEAMAGKNKESIA | EAAVTLT | QQYARLPLS | 0.55 0.55 0.69 0.56 0.59 0.51 | 0.58 | 1 of 18 (3.23)
KFMISLEYQMAEQNAIA | HAEISTV | QQYSRLPIY | nd nd nd nd nd nd | nd | 0 of 18
SVTSEMDQQQEQYNSVA | GVQKTAD | QQYGRLPLS | 1.22 1.33 0.89 1.11 1.27 1.47 | 1.22 | 2 of 18 (2.42)
HITGAMELEWSNKYPVA | SATDRAP | QSYFRLPLM | 1.23 1.21 0.65 0.51 0.69 1.41 | 0.95 | 0 of 18
FIQGFGENSNRNSKNIA | SKETRQV | QQYDRLPLS | 0.23 0.10 0.21 0.05 0.12 0.38 | 0.18 | 6 of 18 (3.11)
ALRGVGYDEQVKHSAIA | DGEHVNN | QQYSMLPLS | 0.55 0.47 0.43 0.39 0.37 0.51 | 0.45 | 1 of 18 (2.77)
RLSSELMAGEISYNAIA | NTKVLEY | QQYMRLPLG | 0.47 0.55 0.90 0.85 0.93 0.78 | 0.75 | 1 of 18 (1.93)
KLSQGTYGLTQIDSNVA | HDEMRWA | QQYDKLPLI | 2.35 nd nd nd nd nd | 2.35 | 0 of 18
ILMQPYKEPGAAYNNIA | DGSIRLD | QQYHRLPLV | 0.52 0.82 1.02 0.75 0.74 0.98 | 0.81 | 0 of 18
KLNEDVGNHTHDQKNVA | DESRVDR | QQYAHLPLS | nd nd nd nd nd nd | nd | 1 of 18 (2.26)
HINDMLFGDHKIAHSIA | NTGVTSR | QQYSRLPLI | 1.24 0.91 0.62 0.80 1.01 0.98 | 0.93 | 0 of 18
MLWQQMYGFNLHKDAIA | NAKERTG | QQYGRLPLS | 1.38 nd nd 2.38 1.92 2.50 | 2.05 | 0 of 18
HLSANMWMQSSQWDAVA | QGDIANN | QQYSRLPLS | nd nd nd nd nd nd | nd | 0 of 18
KLANRMYQGGLVQANVA | EAKELWE | QQYYHLPLA | 0.96 1.48 0.45 0.61 0.81 0.32 | 0.77 | 0 of 18
RLLDWAYNQTAMDSNIA | DQALEMD | QQYSHLPLT | nd 2.40 nd nd nd 2.88 | 2.64 | 1 of 18 (3.03)
NIVEDNAGDQKNSQNIA | SVDQRED | QQYQKLPLM | 0.16 -0.03 -0.08 -0.29 -0.19 -0.01 | -0.07 | 2 of 18 (3.19)
FLHGQLEGGQKNWSAIA | ENSIRVN | QQYNHLPLL | 1.67 1.76 1.56 1.74 2.05 2.11 | 1.81 | 2 of 18 (3.42)
HVHMLMAIWKEISNNIA | DAQNRNA | QQYFRLPLA | nd nd nd nd 1.56 1.39 | 1.48 | 1 of 18 (1.99)
SMQLDQIEGNQQQNSIA | GESEADM | QHYARLPLT | nd nd nd nd nd nd | nd | 0 of 18
HVEHAWLLSNATMNSVA | NGACLAD | QQYFRLPLA | 0.98 0.73 0.75 0.64 0.78 1.41 | 0.88 | 0 of 18
SMYPFEVAIGEGTNNVA | HVSVRAL | QQYERLPLV | 2.22 2.16 2.00 1.91 1.67 2.22 | 2.03 | 0 of 18
KITQIFSPYGNSWHSVA | NANTLAH | QQYYMLPLM | 1.13 1.04 1.01 0.86 0.98 1.01 | 1.01 | 3 of 18 (2.98)
QITQVQQYDAPNTYNVA | DATVSGR | QQYSQLPLI | nd nd nd nd nd nd | nd | 0 of 18
SMHPFDNAIGKGTNNIA | HVSVRAS | QQYARLPLV | 0.95 0.94 1.03 0.48 0.82 0.80 | 0.84 | 1 of 18 (2.57)
KFSGYKEMVNKDQESIA | GSHTIQE | QQYSRLPLA | 0.29 0.40 0.20 0.33 0.36 0.35 | 0.32 | 1 of 18 (1.88)
MIEEGNAGEQKNSSNIA | SQDQKED | QQYQRLPLI | 2.01 1.57 1.68 2.15 1.44 1.79 | 1.77 | 0 of 18
TITGMVEEIETRQKNIA | EVEFRCM | QQYSRLPLS | 2.79 1.98 2.11 2.09 nd nd | 2.24 | 1 of 18 (2.57)
HTQHLGFGDPAHANSIA | ERSQVCA | QQYFRLPLI | 0.33 0.25 -0.08 0.27 0.49 0.86 | 0.35 | 0 of 18
QLENDMTMNQGTRHNIA | EATVIAP | QQYHRLPII | 1.23 0.68 0.61 0.80 0.39 0.95 | 0.78 | 1 of 18 (3.51)
NLQYLEEESLIGASAIA | DVNIAVM | QQYSRLPLA | 0.58 0.74 0.77 0.76 0.85 0.80 | 0.75 | 2 of 18 (4.43)
QIALSEEEVGIQKNSIA | EETVRPA | QQYLRLPLH | nd 0.47 0.49 nd nd 1.63 | 0.87 | 0 of 18
KLSMETYGLTGHTSSIA | HEEIRWA | QQYHKLPLI | 1.16 1.31 1.45 1.44 1.74 1.46 | 1.43 | 1 of 18 (1.97)
QLLTGVTENAKNGKAIA | NHELKAQ | QQYFRLPFS | 0.80 0.54 0.37 0.49 0.24 0.69 | 0.52 | 1 of 18 (2.53)
TLMHHQDYQGEIKKSIA | NAIIKER | QQYSRLPLA | -0.02 0.03 0.21 0.27 0.53 0.42 | 0.24 | 0 of 18
SLRHYFLGENGMRGSVA | NATIRDQ | QQYFRLPLF | 0.90 0.39 0.29 0.44 0.13 0.73 | 0.48 | 0 of 18
KIYQLGLGSQKIMRNIA | QTSIREL | QSYNRLPLS | 1.17 1.07 1.00 1.33 0.80 1.37 | 1.12 | 0 of 18
TLDLWTSYGNGLNKAIA | DVSIKDY | QQYARLPLL | nd 1.62 2.92 0.52 1.32 1.43 | 1.56 | 0 of 18
NLGGEDANDTRGMAAVA | DVSEVGE | QHYNRLPLS | 1.60 0.69 1.24 0.79 0.93 1.34 | 1.10 | 0 of 18

Picked from the list: the 6 lowest averages where every replicate gave a value.

{"CDR-L1": "NIVEDNAGDQKNSQNIA", "CDR-L2": "SVDQRED", "CDR-L3": "QQYQKLPLM", "log10 Kd (nM) by replicate": "0.16 -0.03 -0.08 -0.29 -0.19 -0.01", "log10 Kd (nM), mean": "-0.07", "empty controls": "2 of 18 (3.19)"}
{"CDR-L1": "FIQGFGENSNRNSKNIA", "CDR-L2": "SKETRQV", "CDR-L3": "QQYDRLPLS", "log10 Kd (nM) by replicate": "0.23 0.10 0.21 0.05 0.12 0.38", "log10 Kd (nM), mean": "0.18", "empty controls": "6 of 18 (3.11)"}
{"CDR-L1": "TLMHHQDYQGEIKKSIA", "CDR-L2": "NAIIKER", "CDR-L3": "QQYSRLPLA", "log10 Kd (nM) by replicate": "-0.02 0.03 0.21 0.27 0.53 0.42", "log10 Kd (nM), mean": "0.24", "empty controls": "0 of 18"}
{"CDR-L1": "KFSGYKEMVNKDQESIA", "CDR-L2": "GSHTIQE", "CDR-L3": "QQYSRLPLA", "log10 Kd (nM) by replicate": "0.29 0.40 0.20 0.33 0.36 0.35", "log10 Kd (nM), mean": "0.32", "empty controls": "1 of 18 (1.88)"}
{"CDR-L1": "HTQHLGFGDPAHANSIA", "CDR-L2": "ERSQVCA", "CDR-L3": "QQYFRLPLI", "log10 Kd (nM) by replicate": "0.33 0.25 -0.08 0.27 0.49 0.86", "log10 Kd (nM), mean": "0.35", "empty controls": "0 of 18"}
{"CDR-L1": "ALRGVGYDEQVKHSAIA", "CDR-L2": "DGEHVNN", "CDR-L3": "QQYSMLPLS", "log10 Kd (nM) by replicate": "0.55 0.47 0.43 0.39 0.37 0.51", "log10 Kd (nM), mean": "0.45", "empty controls": "1 of 18 (2.77)"}